{"sequences": {"note": "Sequences of proteins named here, by UniProt entry; tags and fusion partners are left off.", "UniProt Q14974, whole entry": "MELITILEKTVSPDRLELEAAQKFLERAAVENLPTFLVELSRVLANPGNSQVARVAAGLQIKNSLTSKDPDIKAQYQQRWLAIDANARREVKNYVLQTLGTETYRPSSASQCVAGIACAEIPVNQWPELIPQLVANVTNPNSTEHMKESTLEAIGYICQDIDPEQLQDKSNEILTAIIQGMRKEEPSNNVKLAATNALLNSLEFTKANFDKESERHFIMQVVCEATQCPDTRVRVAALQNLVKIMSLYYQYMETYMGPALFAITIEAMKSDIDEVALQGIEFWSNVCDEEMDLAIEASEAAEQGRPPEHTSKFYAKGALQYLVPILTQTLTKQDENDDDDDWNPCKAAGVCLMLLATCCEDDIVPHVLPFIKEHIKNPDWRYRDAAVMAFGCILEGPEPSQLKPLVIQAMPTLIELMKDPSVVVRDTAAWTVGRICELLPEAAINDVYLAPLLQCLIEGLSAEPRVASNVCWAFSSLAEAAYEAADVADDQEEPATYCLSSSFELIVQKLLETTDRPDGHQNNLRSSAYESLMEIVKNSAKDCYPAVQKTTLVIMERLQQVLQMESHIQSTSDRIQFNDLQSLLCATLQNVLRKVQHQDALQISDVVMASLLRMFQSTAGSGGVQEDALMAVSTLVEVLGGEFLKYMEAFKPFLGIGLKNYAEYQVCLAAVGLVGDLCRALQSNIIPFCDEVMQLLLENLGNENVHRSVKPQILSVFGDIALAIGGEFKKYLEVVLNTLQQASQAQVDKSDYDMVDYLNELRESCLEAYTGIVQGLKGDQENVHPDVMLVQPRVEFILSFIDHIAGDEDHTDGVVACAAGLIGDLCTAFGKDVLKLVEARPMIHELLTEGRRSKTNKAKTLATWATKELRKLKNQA"}, "source": "paper PMC7051184", "about": "“C9orf72 arginine-rich dipeptide repeat proteins disrupt karyopherin-mediated nuclear import” (eLife, 2020);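 for TNPO1 band density, % untr control: RNA rows contain added 20 µg total HEK RNA while no-RNA rows lack it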", "key": {"[1]": {"target": "importin β-mediated nuclear import of Rango (Homo sapiens, UniProt Q14974)", "assay": "Permeabilized cell nuclear import assay, Rango, mouse primary cortical neurons", "assay_type": "cell-based", "details": "30 min, up to 100 µM", "description": "All animal procedures were approved by the Johns Hopkins Animal Care and Use Committee. Timed pregnant C57BL/6J females (Jackson Laboratory, Bar Harbor, ME) were sacrificed by cervical dislocation at E16, cortex dissociated, and cells plated at 50,000/well on poly-D-lysine/laminin-coated, optical glass-bottom 96-well plates. Growth medium consisted of Neurobasal supplemented with B27, Glutamax, and penicillin/streptomycin (Gibco/ThermoFisher). At 5–7 days in vitro, neurons were rinsed in prewarmed PBS and permeabilized for 4 min. at 37° in a hypotonic solution containing […] Tris-HCl pH 7.5 (to cause osmotic swelling) and 50–150 mg/ml BSA (for molecular crowding/mechanical support). Following permeabilization, cells were placed on ice and rinsed 2 × 5 min in transport buffer (TRB, 20 mM HEPES, 110 mM KOAc, 2 mM Mg(OAc)2, 5 mM NaOAc, 0.5 mM EGTA, 250 mM sucrose, pH 7.3, with protease inhibitor cocktail). […]\nConcentrated whole cell lysates were prepared from HEK293T cells (ATCC, mycoplasma negative and validated by STR profiling), grown in 150 mm dishes and sonicated on ice in 1X TRB in the presence of protease inhibitor cocktail (Roche). […] RNA concentration was measured by Nanodrop (ThermoFisher), and all 260/280 ratios were verified to be > 2.0. […]\nFor a subset of neuron transport assays, transport was monitored live via time lapse imaging every 5 min for 30 min. […]"}, "importin α": {"system": "importin α", "assay": "DPR aggregation assay and western blot, ImpA", "assay_type": "biochemical, human", "details": "100 µM 10mer in 2.5 mg/ml HEK lysate, normalized to untreated HEK", "experimental": "(§1) Supernatant and pellet fractions (for all 5 DPRs, and control/buffer only) were prepared as in the nuclear transport assays, by adding 100 µM 10mers to 2.5 mg/ml HEK lysate in 100 µL TRB. Supernatants were boiled in Laemmli (BioRad) for 5 min. Pellets were boiled for 15 min followed by sonication in order to fully disperse aggregates for SDS-PAGE. Equal volumes of supernatant and pellet fractions were run on 4–12% Bolt Bis-Tris Plus gels (ThermoFisher), transferred to nitrocellulose membrane using an iBlot2 dry blotting system (ThermoFisher). Protein loading was analyzed by BLOT-Faststain (G-biosciences, St. Louis, MO), according to the manufacterers’ instructions. For immunodetection, membranes were blocked with 5% non-fat milk in TBST and probed by sequential incubation with the primary antibodies as detailed in the table below. Detection was by HRP-conjugated secondary antibodies/chemiluminescence using an ImageQuant LAS 4000 system (GE, Chicago, IL). To permit sequential probing of membranes without stripping, signals were quenched by incubation with prewarmed 30% H20_2 for 20 min ([Sennepin et al., 2009]). Band intensities were measured by ImageQuant software. For pellet vs. supernatant fractions, all were expressed as percent untreated control. For blots in Figure 1E, samples were run on 4–20% SDS PAGE minigels (ThermoFisher) and blotted to PVDF membranes (Immun-Blot PVDF, Bio-Rad) using the Bio-Rad TransBlot Turbo apparatus, and probed as above. The chemiluminescence signal was captured with a Bio-Rad ChemiDoc XRS+ digital imaging system."}, "Matrin-3": {"system": "Matrin-3", "assay": "DPR aggregation assay and western blot, Matrin-3", "assay_type": "biochemical, human", "details": "normalized to untreated HEK cells on the same membrane", "experimental": "as §1"}, "transportin-1 (Tnpo1)": {"system": "transportin-1 (Tnpo1)", "assay": "DPR aggregation assay and western blot, Tnpo1", "assay_type": "biochemical, human", "details": "for Tnpo1 band density, Pellet / Tnpo1 band density, Supernatant: 100 µM 10mer in 2.5 mg/ml HEK lysate, normalized to untreated HEK; for TNPO1 band density, % untr control: Fig 5-suppl 3C, normalized to untreated HEK on same membrane", "experimental": "as §1"}, "Nup62": {"system": "Nup62", "assay": "DPR aggregation assay and western blot, Nup62", "assay_type": "biochemical, human", "details": "100 µM 10mer in 2.5 mg/ml HEK lysate, normalized to untreated HEK", "experimental": "as §1"}, "Nup54": {"system": "Nup54", "assay": "DPR aggregation assay and western blot, Nup54", "assay_type": "biochemical, human", "details": "100 µM 10mer in 2.5 mg/ml HEK lysate; Blot 1; normalized to untreated HEK", "experimental": "as §1, with “For blots in Figure 1E, samples were run on 4–20% SDS PAGE minigels (ThermoFisher) and blotted to PVDF membranes (Immun-Blot PVDF, Bio-Rad) using the Bio-Rad TransBlot Turbo apparatus, and probed as above. The chemiluminescence signal was captured with a Bio-Rad ChemiDoc XRS+ digital imaging system.” left out"}}}
{"smiles": "N=C(N)NCCC[C@H](NC(=O)CNC(=O)[C@H](CCCNC(=N)N)NC(=O)CNC(=O)[C@H](CCCNC(=N)N)NC(=O)CNC(=O)[C@H](CCCNC(=N)N)NC(=O)CNC(=O)[C@H](CCCNC(=N)N)NC(=O)CNC(=O)[C@H](CCCNC(=N)N)NC(=O)CNC(=O)[C@H](CCCNC(=N)N)NC(=O)CNC(=O)[C@H](CCCNC(=N)N)NC(=O)CNC(=O)[C@H](CCCNC(=N)N)NC(=O)CNC(=O)[C@H](CCCNC(=N)N)NC(=O)CN)C(=O)O", "note": "[GR10]", "values": [{"measurement": "Effect on Rango import, time-lapse imaging", "setting": "[1]", "value": "dose-dependent inhibition of transport"}, {"measurement": "ImpA band density, Pellet", "setting": "importin α; Blot 1", "value": 193.3, "unit": "% control"}, {"measurement": "ImpA band density, Supernatant", "setting": "importin α; Blot 1", "value": 76.6, "unit": "% control"}, {"measurement": "ImpA band density, Pellet", "setting": "importin α; Blot 2", "value": 205.4, "unit": "% control"}, {"measurement": "ImpA band density, Supernatant", "setting": "importin α; Blot 2", "value": 87.4, "unit": "% control"}, {"measurement": "Matrin-3 band density, % control", "setting": "Matrin-3; Pellet, Blot 1", "value": 270.7, "unit": "% control"}, {"measurement": "Matrin-3 band density, % control", "setting": "Matrin-3; Pellet, Blot 2", "value": 218.9, "unit": "% control"}, {"measurement": "Matrin-3 band density, % control", "setting": "Matrin-3; Supernatant, Blot 1", "value": 29.8, "unit": "% control"}, {"measurement": "Matrin-3 band density, % control", "setting": "Matrin-3; Supernatant, Blot 2", "value": 41.9, "unit": "% control"}, {"measurement": "Tnpo1 band density, Pellet", "setting": "transportin-1 (Tnpo1); Blot 1", "value": 291.6, "unit": "% control"}, {"measurement": "Tnpo1 band density, Supernatant", "setting": "transportin-1 (Tnpo1); Blot 1", "value": 81.9, "unit": "% control"}, {"measurement": "Tnpo1 band density, Pellet", "setting": "transportin-1 (Tnpo1); Blot 2", "value": 442.1, "unit": "% control"}, {"measurement": "Tnpo1 band density, Supernatant", "setting": "transportin-1 (Tnpo1); Blot 2", "value": 67.8, "unit": "% control"}, {"measurement": "TNPO1 band density, % untr control", "setting": "transportin-1 (Tnpo1); Pellet, RNA, blot 1", "value": 141.85, "unit": "%"}, {"measurement": "TNPO1 band density, % untr control", "setting": "transportin-1 (Tnpo1); Pellet, RNA, blot 2", "value": 159.15, "unit": "%"}, {"measurement": "TNPO1 band density, % untr control", "setting": "transportin-1 (Tnpo1); Pellet, no RNA (Untreated), blot 1", "value": 195.11, "unit": "%"}, {"measurement": "TNPO1 band density, % untr control", "setting": "transportin-1 (Tnpo1); Pellet, no RNA (Untreated), blot 2", "value": 212.81, "unit": "%"}, {"measurement": "TNPO1 band density, % untr control", "setting": "transportin-1 (Tnpo1); Supernatant, RNA, blot 1", "value": 79.24, "unit": "%"}, {"measurement": "TNPO1 band density, % untr control", "setting": "transportin-1 (Tnpo1); Supernatant, RNA, blot 2", "value": 126.57, "unit": "%"}, {"measurement": "TNPO1 band density, % untr control", "setting": "transportin-1 (Tnpo1); Supernatant, no RNA (Untreated), blot 1", "value": 51.45, "unit": "%"}, {"measurement": "TNPO1 band density, % untr control", "setting": "transportin-1 (Tnpo1); Supernatant, no RNA (Untreated), blot 2", "value": 120.00, "unit": "%"}, {"measurement": "Nup62 band density, Pellet", "setting": "Nup62; Blot 1", "value": 233.3, "unit": "% control"}, {"measurement": "Nup62 band density, Supernatant", "setting": "Nup62; Blot 1", "value": 189.9, "unit": "% control"}, {"measurement": "Nup62 band density, Pellet", "setting": "Nup62; Blot 2", "value": 207.3, "unit": "% control"}, {"measurement": "Nup62 band density, Supernatant", "setting": "Nup62; Blot 2", "value": 93.1, "unit": "% control"}, {"measurement": "Nup54 band density, Pellet", "setting": "Nup54", "value": 162.4, "unit": "% control"}, {"measurement": "Nup54 band density, Supernatant", "setting": "Nup54", "value": 87.0, "unit": "% control"}]}
